Data as given in ChEMBL document CHEMBL1201862, “PubChem BioAssay data set” (2004).
Blank lines part the entries; values can stand above or below the compound they belong to. Calls of active or inactive are those of the source. Unless noted, no cut-off for these calls is given here.

Protein sequences, listed by entry. Tags and fused reporters are not part of them.
UniProt P98170, whole entry: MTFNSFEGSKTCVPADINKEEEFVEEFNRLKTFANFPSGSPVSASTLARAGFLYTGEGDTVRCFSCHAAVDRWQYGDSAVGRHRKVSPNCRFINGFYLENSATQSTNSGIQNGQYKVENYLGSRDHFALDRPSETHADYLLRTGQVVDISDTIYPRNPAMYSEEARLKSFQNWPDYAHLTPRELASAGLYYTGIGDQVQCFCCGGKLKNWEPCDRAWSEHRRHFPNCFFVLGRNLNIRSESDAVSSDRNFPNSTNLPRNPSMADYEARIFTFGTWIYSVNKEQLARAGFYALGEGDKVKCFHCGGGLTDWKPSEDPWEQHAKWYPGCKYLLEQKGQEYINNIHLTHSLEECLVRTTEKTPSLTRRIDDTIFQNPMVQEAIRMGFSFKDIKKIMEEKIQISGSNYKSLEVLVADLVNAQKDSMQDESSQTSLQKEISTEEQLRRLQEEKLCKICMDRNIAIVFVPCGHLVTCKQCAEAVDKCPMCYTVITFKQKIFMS

Tests used:
[1] = target: T1, E3 ubiquitin-protein ligase XIAP (Homo sapiens, UniProt P98170); assay: SAR analysis of Antagonists of XIAP-Bir3 domain of IAP-family anti-apoptotic proteins. [Related pubchem assays (depositor defined):AID1018, AID1449, AID1513, AID1514, AID1638]
[2] = target: T1, E3 ubiquitin-protein ligase XIAP; assay: SAR analysis of Antagonists of IAP-family anti-apoptotic proteins. [Related pubchem assays (depositor defined):AID1018, AID1449, AID1513, AID1514, AID1638]
Protein skinhead-1 = target: T2, Protein skinhead-1 (Caenorhabditis elegans, UniProt P34707); assay type: functional
T2 sequence (P34707 whole entry): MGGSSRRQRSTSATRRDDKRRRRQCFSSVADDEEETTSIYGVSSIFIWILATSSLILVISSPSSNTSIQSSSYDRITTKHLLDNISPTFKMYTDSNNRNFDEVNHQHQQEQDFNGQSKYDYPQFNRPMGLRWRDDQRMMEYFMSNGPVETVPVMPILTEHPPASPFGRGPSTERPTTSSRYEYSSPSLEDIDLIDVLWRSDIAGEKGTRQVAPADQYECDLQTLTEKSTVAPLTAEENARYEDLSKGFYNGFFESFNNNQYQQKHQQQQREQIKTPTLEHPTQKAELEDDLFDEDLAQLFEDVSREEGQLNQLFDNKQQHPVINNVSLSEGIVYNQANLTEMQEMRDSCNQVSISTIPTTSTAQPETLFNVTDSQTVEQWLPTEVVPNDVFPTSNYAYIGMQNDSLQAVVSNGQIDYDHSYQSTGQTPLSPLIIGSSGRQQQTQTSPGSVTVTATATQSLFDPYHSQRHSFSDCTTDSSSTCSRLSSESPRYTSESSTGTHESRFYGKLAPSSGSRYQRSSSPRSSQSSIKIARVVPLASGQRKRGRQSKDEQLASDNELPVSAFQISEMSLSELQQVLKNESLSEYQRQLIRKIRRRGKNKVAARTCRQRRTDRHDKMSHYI

Prothrombin = Prothrombin (Homo sapiens, UniProt P00734); assay: Thrombin 1536 HTS Dose Response Confirmation. [Related pubchem assays: 1046 (Thrombin 1536 HTS; hits were confirmed in this assay)]; assay type: functional

- IC50 [1]: active: 14.5 µM
- IC50 [2]: inactive: 154 µM
Structure (SMILES): CN[C@@H](C)C(=O)N[C@@H](C(=O)N1CCC[C@H]1C(=O)NC1CCCc2ccccc21)C(C)C (some centres undefined)

- IC50 (Protein skinhead-1): active: 10.4 µM
Structure (SMILES): CCc1ccc(-c2nc(-c3ccncc3)no2)cc1

Structure (SMILES): COC(=O)c1nnc(NC(=O)c2ccc(C(C)(C)C)cc2)[nH]1
- IC50 (Prothrombin): active: 2.39 µM
